Experimental data taken from PMC8159961, “Exploring protein hotspots by optimized fragment pharmacophores” (Nature Communications, 2021).

Experiments:
SARS-CoV-2 3CLPro [1] = target: T1, SARS-CoV-2 3CLPro (Severe acute respiratory syndrome coronavirus 2, UniProt P0DTD1)
[2] = target: SARS-CoV-2 main protease (3CLPro) (Severe acute respiratory syndrome coronavirus 2, UniProt P0DTD1)
SARS-CoV-2 3CLPro [3] = target: T1, SARS-CoV-2 3CLPro; assay: biochemical
human thrombin = target: T2, human thrombin (Homo sapiens, UniProt P00734); assay: Protease inhibitory assay, chromogenic substrate S-2238; format: biochemical; details: Thrombin primary screening; substrate 40 µM; cmpd conc 500 µM
T2 construct: human thrombin; purchased Sigma-Aldrich

bovine factor Xa = target: T3, bovine factor Xa (Bos taurus, UniProt P00743); assay: Protease inhibitory assay, chromogenic substrate S-2222; format: biochemical; details: FactorXa primary screening; substrate 100 µM; cmpd conc 200 µM
T3 construct: bovine factor Xa, Chromogenix, 2 nkat/mL; purchased Chromogenix

| Compound | %Inhibition (SARS-CoV-2 3CLPro [1]; 0.00338702 µM) | %Inhibition (SARS-CoV-2 3CLPro [1]; 0.0101611 µM) | %Inhibition (SARS-CoV-2 3CLPro [1]; 0.0304832 µM) | %Inhibition (SARS-CoV-2 3CLPro [1]; 0.274348 µM) | %Inhibition (SARS-CoV-2 3CLPro [1]; 0.823045 µM) | %Inhibition (SARS-CoV-2 3CLPro [1]; 22.2222 µM) | %Inhibition (SARS-CoV-2 3CLPro [1]; 66.6667 µM) | %Inhibition (SARS-CoV-2 3CLPro [1]; 200 µM) | X-ray screen result, binding site [2] | inhibition at 22.2222 µM (SARS-CoV-2 3CLPro [3]) [%] | inhibition at 66.6667 µM (SARS-CoV-2 3CLPro [3]) [%] | V0 / Vi (human thrombin) | V0 / Vi (bovine factor Xa) |
| --- | --- | --- | --- | --- | --- | --- | --- | --- | --- | --- | --- | --- | --- |
| CS(=O)(=O)c1ccc(N2CCNCC2)cc1 [SX013] | -4.197% and -6.107% and -5.974% and -5.864% | -5.593% and -7.452% and -4.846% and -7.237% | -10.6845% and -8.536% and -5.692% and -6.7273% | -6.182% and -10.0851% and -8.698% and -8.556% | -4.569% and -9.299% and -9.042% and -8.39% | 40.6044% and 44.6499% and 43.8096% | 87.6737% and 78.2348% and 75.7593% | 68.5156% and 81.1843% and 90.4286% and 90.5201% | located in the active site | 41.1 | 68 |  |  |
| CS(=O)(=O)c1ccc(N2CCNCC2)cc1 [SX-B1] |  |  |  |  |  |  |  |  |  |  |  | 0.95 | 0.95 |

Where “and” joins values, the source holds several entries; their conditions need not be identical. Equal values may be shown once. Read-outs that look alike come from different tables or passages of the source.
